Values of other authors, collected in patent US20060079497A1, “Lavendamycin analogues and methods of synthesizing and using lavendamycin analogues” (Ball State University, priority 2004, published 2006).

Tested on: mice
Conditions: tumor treatment trial, given for five consecutive days; cited from earlier work

For mitomycin C, the maximum tolerated dose is given as “less than 2.0 mg/kg”.
